Assay results published in ChEMBL document CHEMBL2163293, “Rational approaches to improving selectivity in drug design” (J Med Chem, 2012).

Biological target: Protease (Human immunodeficiency virus 1, UniProt Q9YQ12)
Experiment: Binding affinity to wild type HIV1 protease

How did the Ki turn out when `CC(C)(C)NC(=O)[C@@H]1C[C@@H]2CCCC[C@@H]2CN1C[C@@H](O)[C@H](Cc1ccccc1)NC(=O)[C@H](CC(N)=O)NC(=O)c1ccc2ccccc2n1` [SAQUINAVIR] was run?
The Ki was 0.65 nM.
